Read-outs that look alike come from different tables or passages of the source.
Assays:
NMDA receptor [1] = target: NMDA receptor (Rattus norvegicus, UniProt P35439+Q00960); test: biochemical; format: binding; design: other: test compound in the absence of spermine; concentration at 50% of maximum stimulation; % Sti; spermine = 100; other: with and without spermine; absence of spermine; % STI; absence
NMDA receptor [2] = format: binding, rat

Chains of the proteins cited; added tags and fusions are not shown. Residues count along the entry.
UniProt Q00960, 27-1482: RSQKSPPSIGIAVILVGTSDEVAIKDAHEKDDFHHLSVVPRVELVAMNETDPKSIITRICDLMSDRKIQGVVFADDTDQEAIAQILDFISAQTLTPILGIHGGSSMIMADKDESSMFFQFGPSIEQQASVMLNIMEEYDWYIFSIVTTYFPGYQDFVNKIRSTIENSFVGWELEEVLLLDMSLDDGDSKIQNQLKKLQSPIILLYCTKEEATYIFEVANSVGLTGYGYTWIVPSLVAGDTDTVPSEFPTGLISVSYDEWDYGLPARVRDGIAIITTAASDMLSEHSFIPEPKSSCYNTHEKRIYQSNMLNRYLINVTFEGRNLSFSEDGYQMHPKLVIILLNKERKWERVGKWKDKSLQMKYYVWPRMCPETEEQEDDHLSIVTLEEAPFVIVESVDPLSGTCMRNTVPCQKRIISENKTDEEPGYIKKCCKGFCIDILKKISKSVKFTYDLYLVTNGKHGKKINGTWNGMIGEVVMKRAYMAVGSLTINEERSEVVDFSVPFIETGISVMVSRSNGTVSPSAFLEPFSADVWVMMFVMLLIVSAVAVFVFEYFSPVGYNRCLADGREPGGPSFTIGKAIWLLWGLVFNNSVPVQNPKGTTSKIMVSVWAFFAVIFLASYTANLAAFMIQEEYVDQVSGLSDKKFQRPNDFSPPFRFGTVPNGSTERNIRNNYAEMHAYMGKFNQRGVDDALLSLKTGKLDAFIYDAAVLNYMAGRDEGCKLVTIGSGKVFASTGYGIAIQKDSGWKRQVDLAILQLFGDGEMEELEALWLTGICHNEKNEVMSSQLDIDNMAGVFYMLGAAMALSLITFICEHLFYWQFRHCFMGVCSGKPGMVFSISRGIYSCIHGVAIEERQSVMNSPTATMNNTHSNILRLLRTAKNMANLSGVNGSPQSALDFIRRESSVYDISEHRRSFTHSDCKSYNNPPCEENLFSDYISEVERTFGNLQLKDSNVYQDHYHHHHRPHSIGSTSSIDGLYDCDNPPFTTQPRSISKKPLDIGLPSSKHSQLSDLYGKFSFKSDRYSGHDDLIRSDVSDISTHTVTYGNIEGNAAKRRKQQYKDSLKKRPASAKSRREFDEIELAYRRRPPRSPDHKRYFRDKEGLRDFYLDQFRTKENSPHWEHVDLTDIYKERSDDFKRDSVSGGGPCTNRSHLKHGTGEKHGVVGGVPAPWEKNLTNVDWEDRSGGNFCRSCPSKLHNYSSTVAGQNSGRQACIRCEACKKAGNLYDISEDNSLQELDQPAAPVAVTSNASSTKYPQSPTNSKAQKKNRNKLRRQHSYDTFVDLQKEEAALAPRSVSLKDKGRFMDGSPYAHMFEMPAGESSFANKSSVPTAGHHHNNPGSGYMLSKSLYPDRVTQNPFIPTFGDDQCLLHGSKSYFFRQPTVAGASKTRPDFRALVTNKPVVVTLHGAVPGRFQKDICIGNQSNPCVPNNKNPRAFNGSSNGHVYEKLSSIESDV

SMILES	Emax (NMDA receptor [1]; read-out: % Sti) [%]	% Inh (NMDA receptor [2]) [%]	stimulation of [3H]MK-801 binding in the absence of spermine (NMDA receptor [1])	inhibition of spermine-induced [3H]MK-801 binding (NMDA receptor [2])	IC50 (NMDA receptor [2]; read-out: Spermine IC) [µM]	Emax (NMDA receptor [1]; read-out: % STI) [%]	% INH (NMDA receptor [2]) [%]	IC50 (NMDA receptor [2]; read-out: IC50) [µM]	IC50 (NMDA receptor [2]; read-out: IC50, inhibition of spermine-enhanced [3H]MK-801 binding) [µM]
CC[C@H](C)[C@H](N)C(=O)N[C@@H](CCCNC(=N)N)C(=O)N[C@@H](CC(C(=O)O)C(=O)O)C(=O)N[C@@H](CCCCN)C(N)=O [Con-G(12-15), IRgK]	~20	0	–	–	–	–	–	–	–
NCCCC[C@H](NC(=O)[C@@H](N)CC(C(=O)O)C(=O)O)C(=O)N[C@@H](CO)C(=O)N[C@@H](CC(N)=O)C(N)=O [Con-G(14-17), gKSN]	61 ± 1.3	0	stimulated	no inhibition	–	–	–	–	–
NCCCC[C@H](N)C(=O)N[C@@H](CO)C(=O)N[C@@H](CC(N)=O)C(N)=O [Con-G(15-17), KSN]	~20	0	–	–	–	–	–	–	–
CC[C@H](C)[C@H](NC(=O)[C@H](CC(C)C)NC(=O)[C@H](CCC(=O)O)NC(=O)[C@H](CCC(N)=O)NC(=O)[C@H](CC(N)=O)NC(=O)[C@H](CCC(=O)O)NC(=O)[C@H](CCC(N)=O)NC(=O)[C@H](CC(C)C)NC(=O)[C@H](CC(C(=O)O)C(=O)O)NC(=O)[C@H](CC(C(=O)O)C(=O)O)NC(=O)[C@H](CCC(=O)O)NC(=O)CN)C(=O)N[C@@H](CCCNC(=N)N)C(=O)N[C@@H](CCC(=O)O)C(=O)N[C@@H](CCCCN)C(=O)N[C@@H](CO)C(=O)N[C@@H](CC(N)=O)C(N)=O [Glu7,10,14-Con-G]	0	70	–	–	> 5	–	–	–	–
CC[C@H](C)[C@H](NC(=O)[C@H](CC(C)C)NC(=O)[C@H](CC(C(=O)O)C(=O)O)NC(=O)[C@H](CCC(N)=O)NC(=O)[C@H](CC(N)=O)NC(=O)[C@H](CC(C(=O)O)C(=O)O)NC(=O)[C@H](CCC(N)=O)NC(=O)[C@H](CC(C)C)NC(=O)[C@H](CC(C(=O)O)C(=O)O)NC(=O)[C@H](CC(C(=O)O)C(=O)O)NC(=O)[C@H](CCC(=O)O)NC(=O)CNC(=O)[C@@H](N)Cc1ccccc1)C(=O)N[C@@H](CCCNC(=N)N)C(=O)N[C@@H](CC(C(=O)O)C(=O)O)C(=O)N[C@@H](CCCCN)C(=O)N[C@@H](CO)C(=O)N[C@@H](CC(N)=O)C(N)=O [Phe^o-Con-G, F-GEggLQgNQgLIRgKSN]	53 ± 17	51	–	–	6.1	53 ± 17	51	6.1	–
CC[C@H](C)[C@H](NC(=O)[C@H](CC(C)C)NC(=O)[C@H](CC(C(=O)O)C(=O)O)NC(=O)[C@H](CCC(N)=O)NC(=O)[C@H](CC(N)=O)NC(=O)[C@H](CC(C(=O)O)C(=O)O)NC(=O)[C@H](CCC(N)=O)NC(=O)[C@H](CC(C)C)NC(=O)[C@H](CC(C(=O)O)C(=O)O)NC(=O)[C@H](CO)NC(=O)[C@H](CCC(=O)O)NC(=O)CN)C(=O)N[C@@H](CCCNC(=N)N)C(=O)N[C@@H](CC(C(=O)O)C(=O)O)C(=O)N[C@@H](CCCCN)C(=O)N[C@@H](CO)C(=O)N[C@@H](CC(N)=O)C(N)=O [Ser3-Con-G, GESgLQgNQgLIRgKSN]	62 ± 4.9	23 ± 3.6	–	–	3.6 ± 0.7	62 ± 4.9	23 ± 3.6	3.6 ± 0.7	3.6 ± 0.7
CC[C@H](C)[C@H](NC(=O)[C@H](CC(C)C)NC(=O)[C@H](CC(C(=O)O)C(=O)O)NC(=O)[C@H](CCC(N)=O)NC(=O)[C@H](CC(N)=O)NC(=O)[C@H](CO)NC(=O)[C@H](CCC(N)=O)NC(=O)[C@H](CC(C)C)NC(=O)[C@H](CC(C(=O)O)C(=O)O)NC(=O)[C@H](CC(C(=O)O)C(=O)O)NC(=O)[C@H](CCC(=O)O)NC(=O)CN)C(=O)N[C@@H](CCCNC(=N)N)C(=O)N[C@@H](CC(C(=O)O)C(=O)O)C(=O)N[C@@H](CCCCN)C(=O)N[C@@H](CO)C(=O)N[C@@H](CC(N)=O)C(N)=O [Ser7-Con-G, GEggLQSNQgLIRgKSN]	0	100	–	–	0.25 ± 0.04	–	–	–	–

Reference: US6511963B1 (priority 1992, dated 2003)
